One assay concerns the target human ABHD16A (Homo sapiens, UniProt O95870). Description: Competitive gel-based ABPP, human ABHD16A-transfected HEK293T proteome. The format is biochemical. The note with it: read-out: IC50, gel-based ABPP; 30 min, 37° C., then FP-rhodamine 2 μM.
The target of the next assay is ABHD16A (mouse) (Mus musculus, UniProt Q9Z1Q2). Description: Lipid substrate hydrolysis assay, murine ABHD16A-transfected HEK293T membrane proteome.
The nature of assay [1]: Lipid substrate hydrolysis assay, mock-transfected HEK293T membrane proteome. The conditions noted are these: substrate 100 μM. As to the method:
All the lipid species used in the lipid substrate hydrolysis assays were purchased from Avanti Polar Lipids Inc unless mentioned otherwise. In general, 20 μg of proteome was incubated with 100 μM lipid in a reaction volume of 100 μL in PBS at 30° C. with constant shaking. After 30 minutes the reaction was quenched with 350 μL of 2:1 (vol/vol) CHCl3: MeOH, doped with 0.5 nmol internal standard (17:1 FFA). The mixture was vortexed, and the centrifuged at 2800×g for 5 minutes to separate the aqueous (top) and organic (bottom) phase. The organic phase was collected. 5 μL of formic acid was added to the aqueous phase, and extracted again using 350 μL of 2:1 (vol/vol) CHCl3: MeOH using above mentioned protocol. The organic phase was collected, and pooled with the organic phase from the first extraction. […] All the data was collected and analyzed using the Agilent MassHunter Workstation software version B.04 using the Data Acquisition and Quantitative Analysis programs respectively. Measuring the area under the peak, and normalizing it to the internal standard quantified the product release for the lipid substrate hydrolysis assays. […] Some products from the substrate hydrolysis assays were detected in positive ion mode for qualitative identification. […]

Chains of the proteins cited; added tags and fusions are not shown.
UniProt O95870, whole entry: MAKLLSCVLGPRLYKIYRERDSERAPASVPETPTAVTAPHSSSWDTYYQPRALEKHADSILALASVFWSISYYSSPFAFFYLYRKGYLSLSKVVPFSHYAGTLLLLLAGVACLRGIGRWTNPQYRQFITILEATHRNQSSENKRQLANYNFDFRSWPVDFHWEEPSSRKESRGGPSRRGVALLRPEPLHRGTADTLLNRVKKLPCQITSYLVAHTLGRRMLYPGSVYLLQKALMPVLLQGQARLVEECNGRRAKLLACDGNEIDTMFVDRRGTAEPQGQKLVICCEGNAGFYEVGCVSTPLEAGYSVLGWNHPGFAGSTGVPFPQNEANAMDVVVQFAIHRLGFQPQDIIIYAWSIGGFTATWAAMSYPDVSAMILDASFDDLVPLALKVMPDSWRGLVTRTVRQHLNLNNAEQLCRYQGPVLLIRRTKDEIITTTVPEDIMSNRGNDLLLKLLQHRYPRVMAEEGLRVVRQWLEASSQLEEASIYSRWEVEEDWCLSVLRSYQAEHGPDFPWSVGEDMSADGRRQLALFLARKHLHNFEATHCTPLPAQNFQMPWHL
UniProt Q9Z1Q2, whole entry: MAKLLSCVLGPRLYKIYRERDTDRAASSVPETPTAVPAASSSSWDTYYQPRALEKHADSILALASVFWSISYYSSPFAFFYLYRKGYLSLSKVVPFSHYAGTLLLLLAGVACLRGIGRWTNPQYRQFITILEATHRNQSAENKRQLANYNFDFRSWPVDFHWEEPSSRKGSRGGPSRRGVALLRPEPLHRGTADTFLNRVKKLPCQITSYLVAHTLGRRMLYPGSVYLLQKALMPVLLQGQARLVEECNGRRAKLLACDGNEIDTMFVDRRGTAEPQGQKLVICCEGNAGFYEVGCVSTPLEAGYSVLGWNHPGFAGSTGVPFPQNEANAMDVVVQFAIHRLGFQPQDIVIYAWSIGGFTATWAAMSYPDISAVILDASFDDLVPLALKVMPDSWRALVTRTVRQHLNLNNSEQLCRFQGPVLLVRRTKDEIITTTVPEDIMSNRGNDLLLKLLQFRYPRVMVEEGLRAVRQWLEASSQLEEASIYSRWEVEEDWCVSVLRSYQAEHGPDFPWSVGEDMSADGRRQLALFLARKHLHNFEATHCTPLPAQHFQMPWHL

Turning to `CCCCCCCCCCCCCC1OC(=O)/C1=C\CCCCCS(N)(=O)=O` (centres unmarked) [Compound 16, (Z)-6-(2-Oxo-4-tridecyloxetan-3-ylidene)hexane-1-sulfonamide], the IC50 at human ABHD16A lay within 500 to 1000 nM.

With `CCCCCCCCCCCCCC1OC(=O)C1CCCCCC(N)=O` (centres unmarked), on human ABHD16A, the IC50 amounted to 5000 nM.

Regarding `NC(=O)CCCC/C=C1\C(=O)OC1CCCCCCCCCc1ccccc1` (centres unmarked) [Compound 15, (Z)-6-(2-Oxo-4-(9-phenylnonyl)oxetan-3-ylidene)hexanamide], the half-inhibitory concentration (IC50) at human ABHD16A lay within 200 to 500 nM.

Take `NC(=O)CCCCCC1C(=O)OC1CCc1ccccc1` (centres unmarked): the IC50 at human ABHD16A was > 20000 nM.

On to `CCCCC/C=C\C/C=C\CCCCCCCC(=O)O[C@H](COC(=O)CCCCCCCCCCCCCCCCC)COP(=O)(O)OC[C@H](N)C(=O)O`, for which the “Lipase activity, ABHD16A, Mean” value on ABHD16A (mouse) (substrate 100 μM) is recorded as 27.9 nmol/mg/min. For the same molecule, on ABHD16A (mouse) (substrate of ABHD16A), the Km worked out at 40 µM and the maximal velocity (Vmax) was 35 ± 3 nmol/mg/min. The “Lipase activity, Mock, Mean” value in assay [1] is listed as 2.2 nmol/mg/min.

The values above are taken from patent US20170313669A1, “LACTONE COMPOUNDS AND METHODS OF MAKING AND USING SAME” (THE SCRIPPS RESEARCH INSTITUTE, priority 2015, published 2017).
